Measurements taken from patent publication US7407969B2, “Respiratory syncytial virus replication inhibitors” (Janssen Pharmaceutica, N.V., priority 1999, dated 2008).

Tested on: HeLa cells
Assay: Cytotoxicity (CC50) in mock-infected HeLa cells, tetrazolium (MTT) colorimetric assay
Type: cell-based
Settings: 7 days
Protocol: The percent protection against cytopathology caused by viruses (antiviral activity or IC50) achieved by tested compounds and their cytotoxicity (CC50) were both calculated from dose-response curves.
Automated tetrazolium-based […] assays were used for determination of IC50 and CC50 of test compounds. Flat-bottom, 96-well plastic microtiter trays were filled with 180 μl of Eagle's Basal Medium, supplemented with 5% FCS (0% for FLU) and 20 mM Herpes buffer. Subsequently, stock solutions (7.8×final test concentration) of compounds were added in 45 μl volumes to a series of triplicate wells so as to allow simultaneous evaluation of their effects on virus- and mock-infected cells. Five five-fold dilutions were made directly in the microtiter trays using a robot system. Untreated virus controls, and HeLa cell controls were included in each test. Approximately 100 TCID50 Respiratory Syncytial Virus was added to two of the three rows in a volume of 50 μl. […] Finally, the absorbances were read in an eight-channel computer-controlled photometer (Multiskan MCC, Flow Laboratories) at two wavelengths (540 and 690 nm). The absorbance measured at 690 nm was automatically subtracted from the absorbance at 540 nm, so as to eliminate the effects of non-specific absorption.

“(±)-N-[1-(2-amino-3-methylbutyl)-4-piperidinyl]-3-(quinolinylmethyl)-3H-imidazo[4,5-b]pyridin-2-amine [Compound 42]” showed a CC50 greater than 10.1 µM.
